## Antibody variant affinities, Ab-14 light chain, assay 1

The measurements come from Engelhart et al. 2022 (doi:10.1038/s41597-022-01779-4) through the FLAb antibody collection.

Target peptide (SARS-CoV-2 spike, HR2 region): PDVDLGDISGINAS

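In library AAYL50, one, two or three CDR residues were substituted; doubles and triples were drawn at random. AlphaSeq pools MATa yeast showing the antibodies with MATalpha yeast showing the peptide. The frequency of each diploid, read from paired DNA barcodes, reflects how well the two displayed proteins bind. A regression on co-assayed BCL2-family reference pairs converts the normalised counts of each replicate to an apparent Kd. The assay was run in three technical replicates.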

Ab-14 is the parent antibody, in scFv form: VH, then a 15-residue (Gly4Ser)3 linker, then VL. The heavy chain is unchanged in all variants.
VH: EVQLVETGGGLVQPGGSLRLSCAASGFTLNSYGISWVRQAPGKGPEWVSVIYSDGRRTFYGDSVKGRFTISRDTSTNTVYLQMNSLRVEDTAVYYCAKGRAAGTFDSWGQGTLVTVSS
VL: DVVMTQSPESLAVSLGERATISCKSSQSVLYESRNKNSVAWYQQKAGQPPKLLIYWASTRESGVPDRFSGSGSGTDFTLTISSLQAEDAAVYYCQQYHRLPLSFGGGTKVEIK

Changes read parent residue, position, new residue, counted from the first residue of the VL shown. This list gathers variants with a substitution at A40 (VL, numbered from residue 1). Values are apparent Kd, the geometric mean of the replicates that gave a signal; lower means stronger binding. "nd" marks a missing value. The strain was present, yet no cells mated with the target were sequenced in any replicate, which points to weak or no binding. Three control strains display no target. For library AAYL50, 18% of the pairings with them gave a signal, with a median of 15 µM and one signal in twenty below 970 nM, so weak values seen in few replicates may be background.

changes	apparent Kd	detected
K36F/A40K/Q96P	51 µM	2/3
L30M/A40N/S58G	1.7 µM	1/3
K24R/A40R/L100E	nd	0/3
S25E/A40D/L100F	120 µM	2/3
A40M/E61R/Q96P	nd	0/3
S28H/A40R/S62Q	4.8 nM	3/3
A40W	12 µM	1/3
A40M/T59N/Y97S	53 µM	2/3
N35P/A40F/Y97F	nd	0/3
A40F/R60Q	110 µM	1/3
A40C/H98V/R99V	nd	0/3
V29K/N37T/A40Q	nd	0/3
A40Q	3.7 µM	1/3
A40W/T59F/Q96I	nd	0/3
R34H/A40R/S58N	15 µM	1/3
V39T/A40P/T59Y	4.9 µM	1/3
E32V/A40G/E61Y	nd	0/3
A40Q/Y97R/R99I	35 µM	2/3
A40N/Y97I/P101M	nd	0/3